Assay: Global PBPK model fitted to mouse plasma and tissue PK data
Format: in vivo
Settings: mice

Permeability (PStc,ti) (Bone, model estimate): 0.072 mL/min
Permeability (PStc,ti) (Erythrocyte, fixed to estimate from individual tissue fitting stage): 17.0 mL/min
Permeability (PStc,ti) (Kidney, model estimate): 0.069 mL/min
Permeability (PStc,ti) (Lung, model estimate): 0.013 mL/min
Permeability (PStc,ti) (Remainder compartment, model estimate): 4.17 mL/min
Permeability (PStc,ti) (Spleen, model estimate): 0.01 mL/min
SMILES: CC(C)C[C@H](NC(=O)[C@H](Cc1ccccc1)NC(=O)c1cnccn1)B(O)O [Bortezomib]

— paper PMC4620045 (Journal of pharmacokinetics and pharmacodynamics, 2015)
